Measured values as given in US20200095296A1, “USE OF PEPTIDES AS BIOMARKERS IN THE DIAGNOSIS, CONFIRMATION AND TREATMENT OF A NEUROLOGICAL DISORDER AND TCR AND/OR HLA IMMUNOPROFILING IN NEURODEGENERATIVE DISEASE” (THE TRUSTEES OF COLUMBIA UNIVERSITY IN THE CITY OF NEW YORK, priority 2017, published 2020).

Target: HLA DQB1*03:02 (human)
Test: competition with radiolabeled peptide, purified HLA

With alpha-syn peptide aa126…aa140 as the substance, how does the IC50 read?
The IC50 was 5.8 µM.
